Rows were chosen to be rich in hits. Some 1.3% of all compounds tested hit in one or more screens of this group.
PglD DTNB: blocks C. jejuni PglD acetyltransferase activity | purified PglD enzyme, DTNB colorimetric CoA detection | inhibition, % at 12.5 µM | 360,000 tested, 0.098% active; in the data active means inhibition above about 16%, passing the limit was not always enough; inconclusive means no clear call, values can overlap the other calls
Yeast UUG start: modulators of yeast start codon fidelity, primary screen, whole organism, S. cerevisiae, single point, plate reader | AID 602363, 2012 | S. cerevisiae UUG-firefly luciferase reporter, luminescence/redox ratio | activity score, % at 18.7 µM | hit rate 0.13% among 350,000;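 active = replicate mean at a twofold rise or more, about +100% in these data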;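 also: firefly luciferase made from a UUG start codon reports start codon fidelity; reporter light over untreated wells divided by growth signal over untreated wells; some hits fall short of that in this replicate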
F508del corr: CFTR F508del correction in bronchial cells | CFBE cells, YFP halide quenching; stimulated with forskolin plus potentiator P3; % fluorescence drop versus neutral controls | activity (quench increase), % at 7.58 µM | 350,000 tested, 0.36% active;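 active means mean added fluorescence quench of at least 8% versus neutral control, with both replicates also reaching 8%; inconclusive means only one of the mean or replicate conditions met; inactive means mean below 8% and not both replicates reaching 8%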;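 further: cells transiently co-express mutant CFTR-F508del with the halide-sensitive YFP; corrector assay measuring rescue of mutant channel to the surface after 24 h compound exposure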
LGR2 antag: inhibitors of bursicon-induced Drosophila LGR2 receptor cAMP signaling; HEK293 LGR2, CRE-luciferase, bursicon-stimulated, 4 h; inhibition, % at 9.99 µM; 380,000 tested, 0.35% active;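 active means drop in luminescence signal, shown as inhibition above about 50% in the replicate tests, limit read from the data, passing the limit was not always enough; inconclusive means probably only some replicates passing the limit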;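 further: agonist challenge used bursicon conditioned medium at about half maximal strength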
miR122 inh: inhibitors of miR-122 in Huh7 cells; 340,000 tested, 0.3% active; Huh7 miR-122 Renilla luciferase sensor, 48 h; neutral wells = 0, positive control = 100; AID 602342; activation (reporter increase), % at 12.5 µM;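 active means mean replicate activation score at least 90 and every replicate individually at or above 90; inconclusive means only one of the two criteria met; inactive means neither criterion met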;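 further: higher luciferase means less miR-122 activity so hits act as miR-122 inhibitors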
EWS-Fli inh: EWS/Fli transcriptional activity inhibition | A673 NR0B1-luciferase reporter, viability-normalised | inhibition, % at 12.6 µM | 350,000 tested, 0.67% active | AID 651661;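 active means mean inhibition of at least 50% after viability correction, with every replicate also passing that limit; inconclusive means mean reaches 50% but only one of two replicates passes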;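 further: firefly luciferase signal divided by Alamar Blue viability fluorescence both relative to DMSO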
DNA binding: small molecule DNA binding by fluorescence polarization | salmon sperm DNA acridine orange fluorescence polarization | AID 720586 | AC35, µM (highest dose often 68 µM), for the others: at the highest dose activity change, negative = DNA binding | shares compounds with EWS-Fli inh | 640 tested, 2% active;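 active means fitted curve reaches a 35% signal fall AC35 below twice the sample's top valid tested dose, actives reach about 48 µM in these data; inactive means the rest, including activity in the rising direction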;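 further: lower polarization ratio signals compound binding to DNA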
* hit, by the source's call; ? = inconclusive; . = no result; ! = not confirmed by another sample; [ ] = another dose, or the depositor's remark.

#	Molecule	PglD DTNB	Yeast UUG start	F508del corr	LGR2 antag
1	CN=c1scc(-c2ccccc2F)n1/N=C/c1ccc[nH]1	.	.	0	93*
2	CN=c1scc(-c2ccccc2F)n1/N=C/c1ccc(O)c(O)c1O	1	-92	-1	70*
3	O=C(O)c1ccc2cc(-c3ccccc3)[nH]c2c1	7	-48	-1	.
4	O=C(O)c1ccc(-c2ccccc2)[nH]1	1	-10	.	-15
5	CCCCSc1nc2sc3c(c2c(=O)n1-c1ccccc1)CCN(C)C3	2	0	4	-3
6	CCN1CCS/C1=C\C=C\C1=[N+](CC)CCS1	-4	-7	2	24
7	CCC(=O)Nc1sc(Cc2ccc3c(c2)OCO3)c(C)c1C(N)=O	.	.	0	-10
8	Cc1c(Cc2ccc3c(c2)OCO3)sc(NC(=O)C(C)(C)C)c1C#N	-2	-1	3	-9
9	COc1cc2c(cc1NC(=O)CN(C)Cc1ccc(OC)c(OC)c1)oc1ccccc12	0	-11	7	-8
10	CCCNC(=O)[C@@H]1[C@@H](CO)[C@@H]2Cn3c(ccc(-c4ccccc4)c3=O)[C@H]1N2C(=O)CC	.	.	0	5
11	COc1cc(-c2noc(C)c2C#Cc2nccn2C)cc(OC)c1OC	-3	-4	0	-6
12	Cc1cccc(C)c1NC(=O)CN1CCN(C(=O)CNC(=O)c2ccc(-c3ccccc3)cc2)CC1	-3	-2	-4	7

#	miR122 inh	EWS-Fli inh	DNA binding
1	-2	87*	-8%
2	-2	56*	-3%
3	-3	64*	-8%
4	6	.	.
5	-17	11	.
6	-6	53*	-1%
7	.	3	.
8	4	55*	-3%
9	.	53*	-6%
10	.	55*	2%
11	-1	52*	-9%
12	-5	-9	.

(more compounds)
#	Molecule	PglD DTNB	Yeast UUG start	F508del corr	LGR2 antag
13	Cc1cccc(NC(=O)CN2CCN(C(=O)CNC(=O)c3ccc(-c4ccccc4)cc3)CC2)c1C	5	7	0	29
14	CN1C[C@H]2[C@@H](c3ccccc31)[C@@H](CO)N2C(=O)Nc1cccc(F)c1	-2	-18	1	-14
15	O=S(=O)(c1ccc(F)cc1)N1C[C@H]2[C@@H](c3ccccc31)[C@H](CO)N2Cc1ccccc1Cl	8	19	0	1
16	CN=C(Nc1ccccc1OC)SC1CC(=O)N(c2ccc(C(=O)OC)cc2)C1=O (configuration not stated)	-7	0	.	.
17	C=CCOC(=O)c1sc(NC(=O)c2ccc(OC)cc2)nc1C	.	.	1	-36
18	C[C@@H]1CN([C@@H](C)CO)C(=O)c2cccc(NS(=O)(=O)c3ccc(F)cc3)c2O[C@@H]1CN(C)Cc1ccc(C(=O)Nc2ccccc2N)cc1	12	20	2	-4
19	C[C@@H]1CN([C@@H](C)CO)C(=O)c2cccc(NC(=O)CCCCCC(=O)Nc3ccccc3N)c2O[C@H]1CN(C)Cc1ccc2c(c1)OCO2	.	.	-2	-13
20	C[C@@H]1CN([C@@H](C)CO)C(=O)c2cccc(NS(=O)(=O)c3ccc(F)cc3)c2O[C@H]1CN(C)Cc1ccc(C(=O)Nc2ccccc2N)cc1	.	.	0	19
21	C[C@H]1CN([C@@H](C)CO)C(=O)c2cccc(NC(=O)CCCCCC(=O)Nc3ccccc3N)c2O[C@@H]1CN(C)Cc1ccc2c(c1)OCO2	2	2	0	3
22	C[C@@H]1CN([C@@H](C)CO)C(=O)c2cccc(N(C)C)c2O[C@@H]1CN(C)Cc1ccc(C(=O)Nc2ccccc2N)cc1	-3	5	6	.
23	O=S(=O)(c1cccc(Cl)c1)N1[C@@H]2CNC[C@H]1C2c1ccc(-c2ccncc2)cc1 (some centres not stated)	.	.	2	7
24	Cc1ccc(-c2ccc(NC(=O)C3C4C=CC(C4)C3C(=O)O)cc2)o1 (configuration not stated)	-4	-24	.	.

#	miR122 inh	EWS-Fli inh	DNA binding
13	12	66*	13%
14	14[16.7 µM]	-25	.
15	-7[16.7 µM]	60*	-5%
16	-2	.	.
17	.	56*	2%
18	94*[16.7 µM]	55*	-8%
19	.	18	.
20	.	37	.
21	32[16.7 µM]	57*	11%
22	109*[16.7 µM]	54*	-12%
23	.	-15	.
24	-15	.	.

Another view of some results above:
item	smiles	PglD DTNB	Yeast UUG start	F508del corr	LGR2 antag	miR122 inh	EWS-Fli inh	DNA binding
18	C[C@@H]1CN([C@@H](C)CO)C(=O)c2cccc(NS(=O)(=O)c3ccc(F)cc3)c2O[C@@H]1CN(C)Cc1ccc(C(=O)Nc2ccccc2N)cc1	12	20	2	-4	94*[16.7 µM]	55*	-8%
19	C[C@@H]1CN([C@@H](C)CO)C(=O)c2cccc(NC(=O)CCCCCC(=O)Nc3ccccc3N)c2O[C@H]1CN(C)Cc1ccc2c(c1)OCO2	.	.	-2	-13	.	18	.
20	C[C@@H]1CN([C@@H](C)CO)C(=O)c2cccc(NS(=O)(=O)c3ccc(F)cc3)c2O[C@H]1CN(C)Cc1ccc(C(=O)Nc2ccccc2N)cc1	.	.	0	19	.	37	.

(more compounds)
#	Molecule	PglD DTNB	Yeast UUG start	F508del corr	LGR2 antag
25	C[C@H](O)C#Cc1ccc2c(c1)O[C@@H](CN(C)Cc1ccc(-c3ccccc3)cc1)[C@H](C)CN([C@@H](C)CO)S2(=O)=O	-1	22	1	20
26	C[C@@H]1CN([C@H](C)CO)S(=O)(=O)c2ccc(C#CC(C)(C)O)cc2O[C@H]1CN(C)Cc1ccc(-c2ccccc2)cc1	0	27	-3	1
27	C[C@H](O)C#Cc1ccc2c(c1)O[C@@H](CN(C)Cc1ccc(-c3ccccc3)cc1)[C@@H](C)CN([C@H](C)CO)S2(=O)=O	9	.	2	6
28	CCN1C/C(=C/c2ccc(N3CCOCC3)cc2)C(=O)/C(=C/c2ccc(N3CCOCC3)cc2)C1	.	.	-1	41
29	CCc1ccc(/C=C2/SC(N3CCOCC3)=NC2=O)cc1	.	.	-1	-12
30	c1ccc(-c2ccc([C@H]3[C@H]4CNC[C@@H]3N4Cc3cc(-c4ccccc4)on3)cc2)cc1	.	.	-1	-13
31	c1ccc(-c2cc(CN3[C@@H]4CNC[C@H]3C4c3ccc(-c4ccncc4)cc3)no2)cc1 (some centres not stated)	.	.	-1	-7
32	CCCN(C)C[C@H]1Oc2ncc(-c3ccccc3)cc2C(=O)N([C@@H](C)CO)C[C@H]1C	4	.	-3	.
33	CC1CN(C(=S)Nc2cccc(Cl)c2Cl)CC(C)O1 (configuration not stated)	-6	0	5	-5
34	O=c1ccc2[n+]([O-])c3ccc(O)cc3oc-2c1	.	.	23*	17
35	C=C(C(=O)c1ccccc1)C(c1ccccc1)C(C)C(=O)c1ccccc1 (configuration not stated)	.	.	.	25
36	COc1ccc(C(CC(=O)c2ccccc2)CC(=O)c2ccccc2)cc1	.	.	1	21

#	miR122 inh	EWS-Fli inh	DNA binding
25	-3	67*!	-9%
26	-16[16.7 µM]	58*	-15%
27	-34[16.7 µM]	20	.
28	.	70*	15µM*
29	.	-33	.
30	.	58*	-13%
31	.	-2	.
32	1[16.7 µM]	56*	-10%
33	-3	3	.
34	.	57*	14µM*
35	.	.	.
36	.	-3	.

(more compounds)
#	Molecule	PglD DTNB	Yeast UUG start	F508del corr	LGR2 antag
37	C=C(C(=O)c1ccccc1)C(C(=C)C(=O)c1ccccc1)c1ccc(OC)cc1	.	.	-16	.
38	C=C(C(=O)c1ccccc1)C(C)C(=C)C(=O)c1ccccc1	.	.	.	.
39	CC(C)(C)c1ccc(/C=C(\c2nc3ccccc3[nH]2)S(=O)(=O)c2ccccc2)cc1	0	-13	.	.
40	Cc1cccc(/C=C(\c2nc3ccccc3[nH]2)S(=O)(=O)c2ccccc2)c1	.	.	-6	?
41	CC1=NN(c2ccccc2)C(=O)/C1=C\C=C\c1ccccc1	-5	-13	-11	28
42	CC1=NN(c2ccccc2)C(=O)/C1=C/C=C/c1ccc(N(C)C)cc1	.	.	1	.

#	miR122 inh	EWS-Fli inh	DNA binding
37	.	78*	-11%
38	.	73*	-5%
39	-3	.	.
40	-1	71*	4%
41	-8	64*	7%
42	.	-27	.

Screens from PubChem.
